# Data: ChEMBL document CHEMBL4229418, “Design, synthesis and pharmacology of aortic-selective acyl-CoA: Cholesterol O-acyltransferase (ACAT/SOAT) inhibitors” (Bioorg Med Chem, 2018)
# Species: Oryctolagus cuniculus
# Assay: Selectivity ratio of IC50 for inhibition of SOAT2 in New Zealand white rabbit intestinal microsomes to IC50 for inhibition of SOAT1 in arterial homogenates isolated from 1% cholesterol fed New Zealand white rabbit
smiles,measurement,value
CC(C)c1cccc(C(C)C)c1NC(=O)CCCCCSc1nc2ncccc2o1,Ratio IC50,5.6
